Measured values from patent publication US20180072675A1, “ANTIMICROBIAL PYRIDINOHYDRAZIDE AND HYDRAZOMETHYLPYRIDINE-BASED AGENTS” (Board of Supervisors of Louisiana State University and …, priority 2015, published 2018).

System: protozoal proliferation
Test: Protozoal proliferation
Format: cell-based
Conditions: FIG. 27

SMILES | effect on protozoal proliferation
O=C(N/N=C/c1ccccc1O)c1ccncc1 [SA81] | reduce protozoal proliferation
O=C(N/N=C/c1ccccc1O)c1ccc[n+]([O-])c1 [SA82] | reduce protozoal proliferation
